The values below are quoted from earlier work in patent US20160367500A1 (FERTILIFY INC., priority 2013, published 2016).

In the case of vitamin D, for the setting “Health Canada suggested daily intake levels for females aged 19-50”, the “Tolerable upper intake level” value is listed as 4,000 IU. Further, the “tolerable upper limit of intake” value (humans, Health Canada Nutrition Tables (2013)) is recorded as 4000 IU, per day.
